Reference: PubChem BioAssay AID492972 (The Scripps Research Institute Molecular Screening Center, 2010)
The entries are a selection whose mix differs from that of the whole data set. Active and inactive are the calls of the source.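 How the source made its calls: active means inhibition above the screen-wide average of all tested compounds plus 3 SD (cut at about 25% in these data); inactive means the rest.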

Sequences of proteins named here, by UniProt entry; tags and fusion partners are left off.
UniProt Q15102, whole entry: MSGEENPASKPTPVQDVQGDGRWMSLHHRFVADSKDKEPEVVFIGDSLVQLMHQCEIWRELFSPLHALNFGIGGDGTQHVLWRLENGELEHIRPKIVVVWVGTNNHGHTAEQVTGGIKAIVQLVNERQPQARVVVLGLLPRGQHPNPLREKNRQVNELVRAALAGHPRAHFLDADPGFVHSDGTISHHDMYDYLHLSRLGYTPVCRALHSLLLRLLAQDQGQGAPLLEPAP

Biological target: Platelet-activating factor acetylhydrolase IB subunit alpha1 (Homo sapiens) (UniProt Q15102)
Assay: inhibition of PAF acetylhydrolase 1B subunit 3 – biochemical, fluorescence polarization, human, primary screen (AID 492972);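 further: 0% = enzyme with DMSO only and 100% = wells lacking PAFAH1B3 protein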
Details: recombinant PAFAH1B3, FP-rhodamine probe, at 3.39 µM, stronger effect = higher value

SMILES | inhibition
NC(=O)Nc1ccc([As](=O)(O)O)cc1 | inactive: -3.21%
